Reference: patent EP4745138A1, “THIO-GLUTARIMIDO ISOINDOLINONE DERIVATIVE, BIFUNCTIONAL PROTEIN DEGRADER CONTAINING SAME, AND USES THEREOF” (Gluetacs Therapeutics (Shanghai) Co., Ltd., priority 2023, dated 2025)

System: WEE1
Test: Western blot, substrate protein degradation in hPBMC Cell
Format: cell-based, Human
Details: substrate protein remaining %, treated at 50 nM and 500 nM, 24 hours

In the case of `Nc1cccc2c1CN(C1CCC(=O)NC1=O)C2=O` (stereo not shown) [Lenalidomide, lenalidomide, reference compound], the “Degradation of substrate protein WEE1” value is reported as “B (80%< substrate protein remaining %≤ 100%)”.
